From IntAct's records for PubMed 25684577

B1: E3 ubiquitin-protein ligase CHIP (Homo sapiens), Q9UNE7-1 (parent)
chain: MKGKEEKEGGARLGAGGGSPEKSPSAQELKEQGNRLFVGRKYPEAAACYGRAITRNPLVAVYYTNRALCYLKMQQHEQALADCRRALELDGQSVKAHFFLGQCQLEMESYDEAIANLQRAYSLAKEQRLNFGDDIPSALRIAKKKRWNSIEERRIHQESELHSYLSRLIAAERERELEECQRNHEGDEDDSHVRAQQACIEAKHDKYMADMDELFSQVDEKRKKRDIPDYLCGKISFELMREPCITPSGITYDRKDIEEHLQRVGHFDPVTRSPLTQEQLIPNLAMKEVIDAFISENGWVEDY

Variants of: B1
Conditions: with p11142-1 HSPA8, P11142-1

Variant	effect of a mutation on the interaction
V59D;L129D	disrupting interaction strength
